Ab-14 light chain CDR variants: yeast mating affinities

Binding partner: SARS-CoV-2 spike HR2 peptide, sequence PDVDLGDISGINAS.

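The starting antibody came from a phage panning campaign against this peptide. AAYL50 was designed without a model: most single CDR substitutions and a random sample of double and triple ones. AlphaSeq pools MATa yeast showing the antibodies with MATalpha yeast showing the peptide. The frequency of each diploid, read from paired DNA barcodes, reflects how well the two displayed proteins bind. Read counts were normalised to the haploid input and turned into Kd by a linear fit to BCL2-family pairs of known affinity, for each replicate. The assay was run in three technical replicates.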

Each scFv is VH, the linker GGGGSGGGGSGGGGS, VL, as in the parent Ab-14, and differs from it in the CDRs of the light chain only.
VH: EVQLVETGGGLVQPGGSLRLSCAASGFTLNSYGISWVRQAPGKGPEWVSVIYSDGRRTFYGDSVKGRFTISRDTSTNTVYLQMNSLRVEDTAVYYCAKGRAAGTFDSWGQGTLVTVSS
VL: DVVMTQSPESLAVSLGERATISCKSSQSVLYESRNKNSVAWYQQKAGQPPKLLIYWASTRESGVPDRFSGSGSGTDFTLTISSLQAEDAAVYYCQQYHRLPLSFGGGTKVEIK

Positions count from residue 1 of the parent VL; S33K puts K in place of S.
Affinities are written as log10 Kd with Kd in nM; a lower number is a better binder.
Where no diploid with the target was found in that replicate, the entry reads "ND": below detection, most likely a poor binder, though not proof of it.
Three control strains display no target. For library AAYL50, 18% of the pairings with them gave a signal, with a median of 4.19 and one signal in twenty below 2.99, so weak values seen in few replicates may be background. The control count says in how many pairings with the empty strains this scFv gave a signal, with their mean in brackets.
In this assay the parent's reference entry averaged 0.65; its copy inside this library read 1.68.

changes,"replicates, log10 nM",signal with controls
S33K/S58G/E61A,2.20 2.26 2.92,0 of 9
S28K/S33L/R60V,ND 3.34 3.51,0 of 9
K24I/S28L/T59R,ND ND 5.31,1 of 9 (3.29)
P101M/S103H,ND 2.76 ND,2 of 9 (3.46)
Q27W/S103I,ND ND ND,0 of 9
Y31S/E61T/S103I,0.76 0.97 1.06,6 of 9 (4.28)
S33I/L102T,5.41 3.22 4.10,6 of 9 (4.92)
S58L/R99S/S103D,4.79 ND ND,0 of 9
S26M/Q27H/L30W,0.04 0.24 0.35,1 of 9 (1.53)
N35Y/W56L/Q96K,ND ND 5.00,1 of 9 (3.71)
K24I/V29F/S103G,1.54 1.73 1.91,1 of 9 (4.24)
K24H/R99H,0.59 0.83 0.82,1 of 9 (5.24)
V29D/V39A/L102K,3.87 ND 3.59,6 of 9 (4.23)
S28H/Y31C,ND ND ND,0 of 9
V29H/S58V/S62P,ND ND ND,0 of 9
R34D/L100E,0.44 0.42 0.33,2 of 9 (4.02)
Q27A/S33P/E61N,2.52 1.23 1.81,0 of 9
V39N/W56D/A57R,0.86 0.87 0.81,1 of 9 (4.41)
L30H/S33H/R60C,ND ND 3.49,4 of 9 (3.74)
S28P/Q96I/S103Q,1.30 1.70 2.06,2 of 9 (4.03)
L30D/S38P/L100P,2.05 1.98 2.13,0 of 9
N35R/Q95V/H98R,ND ND ND,1 of 9 (3.07)
L30K/S38T/S58V,ND ND ND,0 of 9
E32K/T59M/Y97T,ND 3.79 5.88,4 of 9 (4.29)
S25L/P101Y/L102R,ND ND ND,0 of 9
K36E/V39T/S103T,ND ND ND,0 of 9
E32Q/N35C/S62E,0.84 0.94 0.94,2 of 9 (4.83)
N35G/S62K/P101S,1.53 1.74 1.57,1 of 9 (4.41)
T59N/S103P,3.24 2.77 2.79,4 of 9 (3.81)
V29R/S38W/Y97S,ND 3.91 5.89,5 of 9 (4.50)
S26G/E32H/S38Y,ND ND ND,0 of 9

Again, the first 4 entries without any signal:

changes	replicates, log10 nM	signal with controls
Q27W/S103I	ND ND ND	0 of 9
S28H/Y31C	ND ND ND	0 of 9
V29H/S58V/S62P	ND ND ND	0 of 9
N35R/Q95V/H98R	ND ND ND	1 of 9 (3.07)

Values reported by Engelhart et al. 2022, doi:10.1038/s41597-022-01779-4 (FLAb copy).